Laboratory results taken from ChEMBL document CHEMBL3596151, “Elucidation of the in vitro and in vivo activities of bridged 1,2,4-trioxolanes, bridged 1,2,4,5-tetraoxanes, tricyclic monoperoxides, silyl peroxides, and hydroxylamine derivatives against Schistosoma mansoni” (Bioorg Med Chem, 2015).

Test system: L6
Assay: Cytotoxicity against rat L6 cells assessed as decrease in cell viability after 72 hrs by resazurin dye based fluorescence analysis
Settings: l6, 72 h

C[C@]12C[C@](C)(OO1)OO2
Activity: Non-toxic
